Results published in patent US9856279B2 (AGIOS PHARMACEUTICALS, INC, priority 2011, dated 2018).

Amino acid sequences for entries named in this document (tags omitted). A change or cut given only in a name is not applied to a line headed by its entry.
UniProt O75874, whole entry, looked up: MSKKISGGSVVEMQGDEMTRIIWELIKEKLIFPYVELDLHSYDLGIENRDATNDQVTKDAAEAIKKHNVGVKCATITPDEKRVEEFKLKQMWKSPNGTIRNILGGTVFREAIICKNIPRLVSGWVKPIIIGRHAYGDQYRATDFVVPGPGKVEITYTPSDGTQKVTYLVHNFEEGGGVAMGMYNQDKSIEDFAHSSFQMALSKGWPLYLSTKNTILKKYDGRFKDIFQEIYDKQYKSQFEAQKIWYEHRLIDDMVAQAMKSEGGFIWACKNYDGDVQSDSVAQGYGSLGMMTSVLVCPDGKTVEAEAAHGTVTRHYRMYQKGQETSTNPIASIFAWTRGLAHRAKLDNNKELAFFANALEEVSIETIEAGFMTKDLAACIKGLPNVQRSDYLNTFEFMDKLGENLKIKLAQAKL
UniProt O75874, whole entry R132H: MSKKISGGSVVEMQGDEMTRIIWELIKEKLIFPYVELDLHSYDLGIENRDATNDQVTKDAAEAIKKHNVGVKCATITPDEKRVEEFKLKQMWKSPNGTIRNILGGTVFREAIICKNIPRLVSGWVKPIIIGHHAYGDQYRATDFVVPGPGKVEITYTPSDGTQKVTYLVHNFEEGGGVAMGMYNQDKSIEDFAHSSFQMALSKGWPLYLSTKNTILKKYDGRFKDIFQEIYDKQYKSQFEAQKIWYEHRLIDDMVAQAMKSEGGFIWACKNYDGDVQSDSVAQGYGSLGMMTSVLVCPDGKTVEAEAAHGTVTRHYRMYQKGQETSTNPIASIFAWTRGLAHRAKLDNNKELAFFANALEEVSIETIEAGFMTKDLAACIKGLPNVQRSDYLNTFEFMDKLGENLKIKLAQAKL

How the values were obtained:
[1] = target: IDH1 R132H (Homo sapiens, UniProt O75874, R132H); experiment: Assay for IDH1 R132H inhibitors (NADPH/aKG, resazurin detection); conditions: read-out: IDH1R132H IC50; enzyme assay of Example 12
[2] = target: HT1080 cells (UniProt O75874); experiment: Cellular assay for IDH1m inhibitors: inhibition of 2-HG production (LC-MS, 48 hours) in HT1080 cells; conditions: read-out: HT1080 IC50
[3] = target: U87MG cells (UniProt O75874); experiment: Cellular assay for IDH1m inhibitors: inhibition of 2-HG production (LC-MS, 48 hours) in U87MG cells; conditions: read-out: U87R132H IC50

Measured: IC50

C=Cc1ccnc(Nc2cc(C#N)c(N3CCN(C(=O)C[C@H]4CCO4)[C@H](C4CC4)C3)nc2C2CC2)c1
< 500 nM: all assays above
